Several values for one entry are separate records, joined by “and”; a condition that tells them apart may be missing. Equal values may be shown once. The list shows a part of the results, in another mix than the full data. Some salts or complexes appear as unconnected parts, following the source record. Activity calls are given as the source filed them. Cut-off read from the data, not from the text of the source: active = inhibition above about 40%; inactive = the rest.
What follows are molecules tested against Cyclic GMP-AMP synthase (Homo sapiens) (UniProt Q8N884) (assay: Primary biochemical luminescence assay for human cyclic GMP-AMP synthase inhibitors (AID 1259398;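 note: 0% = vehicle reaction and 100% = reaction without DNA for no activity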)). Details: recombinant h-cGAS, ATP depletion, Kinase-Glo luminescence; at 12.5 µM; hits give high values.

Chains of the proteins cited; added tags and fusions are not shown.
UniProt Q8N884, whole entry: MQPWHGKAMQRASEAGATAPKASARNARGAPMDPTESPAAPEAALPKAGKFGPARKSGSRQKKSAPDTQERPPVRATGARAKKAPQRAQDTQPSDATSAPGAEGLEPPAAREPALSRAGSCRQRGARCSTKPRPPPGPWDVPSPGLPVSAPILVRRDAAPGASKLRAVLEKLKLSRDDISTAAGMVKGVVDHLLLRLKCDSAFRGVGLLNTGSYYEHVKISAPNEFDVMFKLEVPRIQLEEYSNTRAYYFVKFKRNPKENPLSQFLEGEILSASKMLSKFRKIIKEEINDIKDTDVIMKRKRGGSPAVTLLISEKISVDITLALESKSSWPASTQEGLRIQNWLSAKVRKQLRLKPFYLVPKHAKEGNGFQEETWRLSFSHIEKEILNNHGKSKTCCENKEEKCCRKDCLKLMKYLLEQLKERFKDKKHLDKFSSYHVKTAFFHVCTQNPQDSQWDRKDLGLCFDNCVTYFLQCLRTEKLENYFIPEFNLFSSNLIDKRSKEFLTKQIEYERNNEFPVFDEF

Structure (SMILES)	inhibition
CP(=O)(O)OC(c1ccccc1)C(F)(F)C(F)(F)F (stereo not given)	inactive: -9.98%
Cc1cc(C)cc(OP(C)(=O)Nc2cc(Cl)ccc2C)c1 (stereo not given)	inactive: -2.97%
CP(N)(=O)Oc1ccccc1F (stereo not given)	inactive: 2.47%
CN1CC(=O)N(C)P1(C)=S (stereo not given)	inactive: 1.24%
O=[N+]([O-])C1([N+](=O)[O-])COCOC1	inactive: -5.39%
CN([N+](=O)[O-])C(Br)([N+](=O)[O-])[N+](=O)[O-]	inactive: 1.76%
Cc1ccc(NP(C)(=O)Oc2ccc(Cl)cc2)cc1 (stereo not given)	inactive: -4.25%
Cn1cc([N+](=O)[O-])nc1[N+](=O)[O-]	inactive: -0.994%
CP(=O)(Nc1cccc(F)c1)Oc1ccc(Cl)cc1 (stereo not given)	inactive: -10.4%
CP(=O)(Nc1ccc(Cl)cc1Cl)Oc1ccccc1 (stereo not given)	inactive: -6.51%
CP(=O)(Nc1ccc(F)cc1)Oc1ccc(Cl)cc1 (stereo not given)	inactive: -2.01%
OCCSCCO	inactive: -3.9%
COc1ccc(OP(C)(=O)Nc2ccc(Br)cc2)cc1 (stereo not given)	inactive: -10.4%
CP(=O)(Oc1ccc(F)cc1)OC(c1ccccc1)C(F)(F)F (stereo not given)	inactive: -7.92%
COc1cccc(C(OP(C)(=O)O)C(F)(F)F)c1 (stereo not given)	inactive: -0.239%
CC(C)(C)c1ccc(OP(C)(=O)O)cc1	inactive: -1.03%
CCCCOc1ccc(NP(C)(=O)Oc2ccc(CC)cc2)cc1 (stereo not given)	inactive: -3.8%
CP(=O)(O)OC(c1ccccc1)C(F)(F)F (stereo not given)	inactive: -2.13%
Nc1nonc1N=Nc1nonc1N	inactive: 3.21%
CP(=O)(Nc1ccccc1Br)Oc1ccccc1 (stereo not given)	inactive: -4.39% and inactive: -5.97%

Structure (SMILES)	inhibition
CP(=O)(O)OC(c1cccc(Cl)c1)C(F)(F)F (stereo not given)	inactive: 1.59%
CP(=O)(Oc1ccccc1)OC(c1ccccc1)C(F)(F)F (stereo not given)	inactive: -35.9%
COC(=O)NC(c1ccccc1)P(=O)(Cl)Cl (stereo not given)	inactive: -6.07%
CN(C)CCS	inactive: -0.591%
CCOP(C)(=S)SCN(CC(=O)O)C(=O)OC (stereo not given)	inactive: -5.33%
Cc1cccc(C)c1OP(C)(N)=O (stereo not given)	inactive: -3.76%
CP(=O)(Nc1ccc(Br)cc1)Oc1ccccc1 (stereo not given)	inactive: -2.71%
CC(C)(C)c1ccc(OP(C)(N)=O)cc1 (stereo not given)	inactive: -1.71%
COc1ccc(OP(C)(=O)Nc2cccc(F)c2)cc1 (stereo not given)	inactive: 0.365%
Cc1cc(C)cc(OP(C)(N)=O)c1 (stereo not given)	inactive: -4.63%
CCN(C1=NCCCS1)P(O)(=S)CC (stereo not given)	inactive: -2.29%
CP(=O)(O)OC(c1cccc(C(F)(F)F)c1)C(F)(F)F (stereo not given)	inactive: -3.37%
Cc1ccc(NP(C)(=O)Oc2ccc(C(C)(C)C)cc2)cc1 (stereo not given)	inactive: -5.93%
Cc1ccc(NP(C)(=O)Oc2ccc(C(C)C)cc2)cc1C (stereo not given)	inactive: -1.17%
CC(=O)N(CCN(C(C)=O)[N+](=O)[O-])[N+](=O)[O-]	inactive: -2.15%
C/C1=C2N=C(/C=C3N=C(/C(C)=C4\[N-]C(C)(C5N=C1C(C)(CCC(=O)NCC(C)OP(=O)(O)OC1C(CO)OC(n6cnc7cc(C)c(C)cc76)C1O)C5CC(N)=O)C(C)(CC(N)=O)C4CCC(N)=O)C(C)(CC(N)=O)C\3CCC(N)=O)C(C)(C)C/2CCC(N)=O.[C-]#N.[Co+3] (stereo not given)	inactive: -17.9%
CP(=O)(Nc1ccc(Br)cc1)Oc1ccc(Cl)cc1 (stereo not given)	inactive: -6.66%
Cc1ccc(Cl)cc1NP(C)(=O)Oc1ccccc1 (stereo not given)	inactive: -6.89%
COc1ccc(OP(C)(=O)Nc2ccc(Cl)cc2)cc1 (stereo not given)	inactive: -1.91%
Nc1cc([N+](=O)[O-])cc([N+](=O)[O-])c1O	inactive: -4.01%
